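96-well plates; 48 h exposure; 5 concentrations. Endpoints by linear interpolation between flanking doses. Not reached: highest tested concentration assigned. GI50 is the concentration that inhibits growth by half. TGI marks complete inhibition of growth.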
What was measured:
Assay in all cases: inhibition of tumour cell growth, NCI panel, 48 h
[1] = tested on: HCT-15 colon
[2] = tested on: NCI-H522 lung
[3] = tested on: CCRF-CEM leukemia
[4] = tested on: NCI-H226 lung
[5] = tested on: NCI-H322M lung
[6] = tested on: XF 498 CNS
[7] = tested on: DMS 114 small cell lung
[8] = tested on: SK-MEL-5 melanoma
[9] = tested on: IGROV1 ovarian
[10] = tested on: SF-539 CNS
[11] = tested on: NCI-H460 lung
[12] = tested on: HL-60(TB) leukemia
[13] = tested on: HCC-2998 colon
[14] = tested on: COLO 205 colon
[15] = tested on: A498 renal
[16] = tested on: SW-620 colon
[17] = tested on: SK-MEL-28 melanoma
[18] = tested on: SNB-78 CNS
[19] = tested on: TK-10 renal
[20] = tested on: OVCAR-5 ovarian
[21] = tested on: SR leukemia
[22] = tested on: KM12 colon
[23] = tested on: OVCAR-8 ovarian
[24] = tested on: HOP-18 NSCLC
[25] = tested on: SNB-75 CNS
[26] = tested on: HT29 colon
[27] = tested on: RXF 393 renal
[28] = tested on: SN12C renal
[29] = tested on: SF-268 CNS
[30] = tested on: SNB-19 CNS
[31] = tested on: ACHN renal
[32] = tested on: OVCAR-3 ovarian
[33] = tested on: UACC-62 melanoma
[34] = tested on: MOLT-4 leukemia
[35] = tested on: M19-MEL melanoma
[36] = tested on: KM20L2 colon
[37] = tested on: HCT-116 colon
[38] = tested on: DMS 273 small cell lung
[39] = tested on: NCI-H23 lung
[40] = tested on: U251 CNS
[41] = tested on: MALME-3M melanoma
[42] = tested on: OVCAR-4 ovarian
[43] = tested on: 786-0 renal
[44] = tested on: LOX IMVI melanoma
[45] = tested on: K-562 leukemia
[46] = tested on: SF-295 CNS
[47] = tested on: RPMI-8226 leukemia
[48] = tested on: SK-MEL-2 melanoma
[49] = tested on: SK-OV-3 ovarian
[50] = tested on: A549 NSCLC
[51] = tested on: UO-31 renal
[52] = tested on: UACC-257 melanoma
[53] = tested on: EKVX NSCLC
[54] = tested on: HOP-62 NSCLC
[55] = tested on: DLD-1 colon

With `C[N+](CCCl)(CCCl)Cc1ccc([N+](=O)[O-])cc1` the GI50 [1] was > 100 µM, the TGI [1] was > 100 µM and the GI50 [2] was > 100 µM. For the same compound, the TGI [2] was > 100 µM, the GI50 [3] was > 100 µM and the TGI [3] was > 100 µM. The GI50 [4] was 80.4 µM, the TGI [4] was > 100 µM and the GI50 [5] was > 100 µM. The TGI [5] was > 100 µM, the GI50 [6] was > 100 µM and the TGI [6] was > 100 µM. For the same compound, the GI50 [7] was > 100 µM, the TGI [7] was > 100 µM and the GI50 [8] was > 100 µM. The TGI [8] was > 100 µM, the GI50 [9] was > 100 µM and the TGI [9] was > 100 µM. The GI50 [10] was > 100 µM, the TGI [10] was > 100 µM and the GI50 [11] was > 100 µM. For the same compound, the TGI [11] was > 100 µM, the GI50 [12] was > 100 µM and the TGI [12] was > 100 µM. For the same compound, the GI50 [13] was > 100 µM, the TGI [13] was > 100 µM and the GI50 [14] was > 100 µM. For the same compound, the TGI [14] was > 100 µM, the GI50 [15] was > 100 µM and the TGI [15] was > 100 µM. The GI50 [16] was > 100 µM, the TGI [16] was > 100 µM and the GI50 [17] was > 100 µM. The TGI [17] was > 100 µM, the GI50 [18] was > 100 µM and the TGI [18] was > 100 µM. The GI50 [19] was > 100 µM, the TGI [19] was > 100 µM and the GI50 [20] was > 100 µM. The TGI [20] was > 100 µM, the GI50 [21] was > 100 µM and the TGI [21] was > 100 µM. The GI50 [22] was 88.7 µM, the TGI [22] was > 100 µM and the GI50 [23] was > 100 µM. The TGI [23] was > 100 µM, the GI50 [24] was 41.9 µM and the TGI [24] was > 100 µM. The GI50 [25] was 33.6 µM, the TGI [25] was > 100 µM and the GI50 [26] was > 100 µM. For the same compound, the TGI [26] was > 100 µM, the GI50 [27] was > 100 µM and the TGI [27] was > 100 µM. The GI50 [28] was > 100 µM, the TGI [28] was > 100 µM and the GI50 [29] was > 100 µM. The TGI [29] was > 100 µM, the GI50 [30] was > 100 µM and the TGI [30] was > 100 µM. The GI50 [31] was > 100 µM, the TGI [31] was > 100 µM and the GI50 [32] was > 100 µM. The TGI [32] was > 100 µM, the GI50 [33] was > 100 µM and the TGI [33] was > 100 µM. For the same compound, the GI50 [34] was > 100 µM, the TGI [34] was > 100 µM and the GI50 [35] was > 100 µM. The TGI [35] was > 100 µM, the GI50 [36] was > 100 µM and the TGI [36] was > 100 µM. For the same compound, the GI50 [37] was > 100 µM, the TGI [37] was > 100 µM and the GI50 [38] was > 100 µM. For the same compound, the TGI [38] was > 100 µM, the GI50 [39] was > 100 µM and the TGI [39] was > 100 µM. The GI50 [40] was > 100 µM, the TGI [40] was > 100 µM and the GI50 [41] was > 100 µM. For the same compound, the TGI [41] was > 100 µM, the GI50 [42] was > 100 µM and the TGI [42] was > 100 µM. The GI50 [43] was > 100 µM, the TGI [43] was > 100 µM and the GI50 [44] was > 100 µM. For the same compound, the TGI [44] was > 100 µM, the GI50 [45] was > 100 µM and the TGI [45] was > 100 µM. The GI50 [46] was > 100 µM, the TGI [46] was > 100 µM and the GI50 [47] was > 100 µM. For the same compound, the TGI [47] was > 100 µM, the GI50 [48] was > 100 µM and the TGI [48] was > 100 µM. The GI50 [49] was > 100 µM, the TGI [49] was > 100 µM and the GI50 [50] was > 100 µM. For the same compound, the TGI [50] was > 100 µM, the GI50 [51] was > 100 µM and the TGI [51] was > 100 µM. For the same compound, the GI50 [52] was > 100 µM, the TGI [52] was > 100 µM and the GI50 [53] was > 100 µM. The TGI [53] was > 100 µM, the GI50 [54] was > 100 µM and the TGI [54] was > 100 µM. The GI50 [55] was > 100 µM and the TGI [55] was > 100 µM.

— PubChem BioAssay (NCI)
